The assay deals with Adenosine receptor A3 (Homo sapiens, UniProt P0DMS8). The experiment in a line: Relative activation of human Adenosine A3 receptor expressed in CHO cells at 10 uM treatment compared to 10 uM Cl-IB-MECA. It counts as functional, cell-based.

By UniProt entry, the sequences of proteins in these tests, tags left out.
UniProt P0DMS8, whole entry: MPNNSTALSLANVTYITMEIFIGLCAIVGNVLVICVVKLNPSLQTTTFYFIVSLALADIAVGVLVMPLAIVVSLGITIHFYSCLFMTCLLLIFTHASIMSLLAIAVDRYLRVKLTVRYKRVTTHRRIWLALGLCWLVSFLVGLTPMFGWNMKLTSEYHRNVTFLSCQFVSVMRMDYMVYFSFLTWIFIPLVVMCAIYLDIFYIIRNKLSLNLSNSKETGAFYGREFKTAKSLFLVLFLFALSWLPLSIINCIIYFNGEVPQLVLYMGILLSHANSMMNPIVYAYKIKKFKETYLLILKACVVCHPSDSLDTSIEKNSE

Among the data in ChEMBL document CHEMBL1142719 (J Med Chem, 2005) are Activation values, retold here.

In the case of `CNc1ncnc2c1ncn2[C@@H]1O[C@H](CO)[C@@H](O)[C@H]1O`, the Activation was found to be 96%.
